According to patent publication US20110104716A1, “NOVEL METHOD FOR SCREENING BRAIN-ACTIVE COMPOUNDS” (priority 2007, published 2011):

Tested on: hippocampal slices
Experiment: Hippocampal slice cultures and induction of LTP (immunohistochemistry of LTP markers)
Type: cell-based, Wistar rats
Conditions: compared to vehicle treated sections set as 100%; 15 min treatment
Procedure: Seven-day-old Wistar rats were decapitated using a guillotine. In less than 1 minute the skull was opened, the cerebral hemispheres were separated and transferred and both hippocampi were dissected and transferred into ice cold buffer containing 137 mM NaCl, 5 mM KCl, 0.85 mM Na2HPO4, 1.5 mM CaCl2, 0.66 mM KH2PO4, 0.28 mM MgSO4, 1 mM MgCl2, 2.7 mM NaHCO3, 1 mM Kynurenic acid and 0.6% D-glucose. Transversal hippocampal slices (typically 400 μm) were prepared using a vibrating blade microtome (VT1200S; Leica Microsystems (Schweiz) AG, Heerbrugg, Switzerland) in the same buffer. Hippocampal slices were individually placed on a membrane insert (Millicell Culture Plate Inserts, 0.4 μm) and cultivated at 35° C., 5% CO2, 95% humidity in a medium containing a 1:1 mixture of BME and MEM (both from Invitrogen) containing 25% heat-inactivated horse serum, 1× GlutaMAX, 1× Penicillin/Streptomycin, 0.6% glucose and 1 mM Kynurenic acid (Stoppini et al. 1991 J Neurosci Methods 37(2):173-82). […] Sarcosine (100 μM) and ALX5407 (20 nM) were used routinely as positive controls. An additional positive control comprised the addition of 200 μM glycine to sister cultures. […] Markers of enhanced synaptic activity, normally associated with LTP, representing an in vitro (or ex vivo) model of learning and memory, were quantified (see Table 1, below). […]

SMILES: NCC(=O)O [Glycine]
- AMPA rec. (AMPA receptors on the cell surface): 123-298%
